Experimental data: the kinase profiling compilation of Christmann-Franck et al. (2016)

Protein sequences, listed by entry. Tags and fused reporters are not part of them. Lines headed by an entry give the natural chain unless they say otherwise; changes in a name come on top.
UniProt Q96RG2: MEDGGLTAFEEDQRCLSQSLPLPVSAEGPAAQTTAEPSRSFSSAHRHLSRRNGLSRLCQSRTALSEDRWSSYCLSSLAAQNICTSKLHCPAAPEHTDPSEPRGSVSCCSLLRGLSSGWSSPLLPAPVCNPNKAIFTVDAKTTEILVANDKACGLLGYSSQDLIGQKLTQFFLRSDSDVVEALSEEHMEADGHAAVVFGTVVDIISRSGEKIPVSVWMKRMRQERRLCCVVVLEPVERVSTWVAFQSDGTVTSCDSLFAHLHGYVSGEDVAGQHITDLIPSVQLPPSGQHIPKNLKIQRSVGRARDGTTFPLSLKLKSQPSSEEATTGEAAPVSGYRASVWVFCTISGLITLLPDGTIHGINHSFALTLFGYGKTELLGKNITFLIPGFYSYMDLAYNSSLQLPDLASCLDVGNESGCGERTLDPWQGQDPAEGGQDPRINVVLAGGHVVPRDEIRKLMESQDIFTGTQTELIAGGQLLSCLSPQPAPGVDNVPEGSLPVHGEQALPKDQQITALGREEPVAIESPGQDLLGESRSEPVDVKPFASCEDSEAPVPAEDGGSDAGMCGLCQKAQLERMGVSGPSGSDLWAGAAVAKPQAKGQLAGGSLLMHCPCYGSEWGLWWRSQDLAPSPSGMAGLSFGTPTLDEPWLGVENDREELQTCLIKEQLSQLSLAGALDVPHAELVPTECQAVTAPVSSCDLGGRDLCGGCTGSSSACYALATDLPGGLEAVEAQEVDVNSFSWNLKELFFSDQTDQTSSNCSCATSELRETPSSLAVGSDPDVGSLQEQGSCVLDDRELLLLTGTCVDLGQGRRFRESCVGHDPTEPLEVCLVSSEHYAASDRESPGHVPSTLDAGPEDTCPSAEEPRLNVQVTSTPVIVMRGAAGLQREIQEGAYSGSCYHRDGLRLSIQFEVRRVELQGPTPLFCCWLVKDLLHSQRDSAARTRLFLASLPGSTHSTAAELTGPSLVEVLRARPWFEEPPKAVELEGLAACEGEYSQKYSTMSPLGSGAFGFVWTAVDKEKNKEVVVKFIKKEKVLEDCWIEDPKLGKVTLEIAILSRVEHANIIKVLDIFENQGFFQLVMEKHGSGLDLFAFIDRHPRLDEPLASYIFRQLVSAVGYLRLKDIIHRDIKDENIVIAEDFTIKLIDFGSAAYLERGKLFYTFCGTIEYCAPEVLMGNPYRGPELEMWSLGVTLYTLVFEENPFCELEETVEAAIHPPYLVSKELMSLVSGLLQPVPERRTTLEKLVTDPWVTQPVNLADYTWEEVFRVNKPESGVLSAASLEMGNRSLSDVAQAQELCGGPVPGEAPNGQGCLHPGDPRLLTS
UniProt P36896: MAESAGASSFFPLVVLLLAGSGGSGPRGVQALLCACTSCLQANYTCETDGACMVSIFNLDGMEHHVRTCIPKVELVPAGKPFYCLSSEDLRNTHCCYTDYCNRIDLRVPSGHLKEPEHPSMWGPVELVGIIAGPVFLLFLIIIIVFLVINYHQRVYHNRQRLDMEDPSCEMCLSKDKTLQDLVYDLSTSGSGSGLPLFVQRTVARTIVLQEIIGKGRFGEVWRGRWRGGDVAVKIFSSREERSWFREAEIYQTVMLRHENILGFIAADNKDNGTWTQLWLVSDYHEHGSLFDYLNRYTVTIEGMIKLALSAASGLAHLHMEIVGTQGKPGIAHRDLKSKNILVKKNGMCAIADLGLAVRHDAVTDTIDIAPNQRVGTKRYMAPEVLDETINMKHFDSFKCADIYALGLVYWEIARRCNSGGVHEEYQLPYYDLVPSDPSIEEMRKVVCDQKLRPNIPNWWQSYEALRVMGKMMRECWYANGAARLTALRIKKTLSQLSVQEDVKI
UniProt Q5VT25: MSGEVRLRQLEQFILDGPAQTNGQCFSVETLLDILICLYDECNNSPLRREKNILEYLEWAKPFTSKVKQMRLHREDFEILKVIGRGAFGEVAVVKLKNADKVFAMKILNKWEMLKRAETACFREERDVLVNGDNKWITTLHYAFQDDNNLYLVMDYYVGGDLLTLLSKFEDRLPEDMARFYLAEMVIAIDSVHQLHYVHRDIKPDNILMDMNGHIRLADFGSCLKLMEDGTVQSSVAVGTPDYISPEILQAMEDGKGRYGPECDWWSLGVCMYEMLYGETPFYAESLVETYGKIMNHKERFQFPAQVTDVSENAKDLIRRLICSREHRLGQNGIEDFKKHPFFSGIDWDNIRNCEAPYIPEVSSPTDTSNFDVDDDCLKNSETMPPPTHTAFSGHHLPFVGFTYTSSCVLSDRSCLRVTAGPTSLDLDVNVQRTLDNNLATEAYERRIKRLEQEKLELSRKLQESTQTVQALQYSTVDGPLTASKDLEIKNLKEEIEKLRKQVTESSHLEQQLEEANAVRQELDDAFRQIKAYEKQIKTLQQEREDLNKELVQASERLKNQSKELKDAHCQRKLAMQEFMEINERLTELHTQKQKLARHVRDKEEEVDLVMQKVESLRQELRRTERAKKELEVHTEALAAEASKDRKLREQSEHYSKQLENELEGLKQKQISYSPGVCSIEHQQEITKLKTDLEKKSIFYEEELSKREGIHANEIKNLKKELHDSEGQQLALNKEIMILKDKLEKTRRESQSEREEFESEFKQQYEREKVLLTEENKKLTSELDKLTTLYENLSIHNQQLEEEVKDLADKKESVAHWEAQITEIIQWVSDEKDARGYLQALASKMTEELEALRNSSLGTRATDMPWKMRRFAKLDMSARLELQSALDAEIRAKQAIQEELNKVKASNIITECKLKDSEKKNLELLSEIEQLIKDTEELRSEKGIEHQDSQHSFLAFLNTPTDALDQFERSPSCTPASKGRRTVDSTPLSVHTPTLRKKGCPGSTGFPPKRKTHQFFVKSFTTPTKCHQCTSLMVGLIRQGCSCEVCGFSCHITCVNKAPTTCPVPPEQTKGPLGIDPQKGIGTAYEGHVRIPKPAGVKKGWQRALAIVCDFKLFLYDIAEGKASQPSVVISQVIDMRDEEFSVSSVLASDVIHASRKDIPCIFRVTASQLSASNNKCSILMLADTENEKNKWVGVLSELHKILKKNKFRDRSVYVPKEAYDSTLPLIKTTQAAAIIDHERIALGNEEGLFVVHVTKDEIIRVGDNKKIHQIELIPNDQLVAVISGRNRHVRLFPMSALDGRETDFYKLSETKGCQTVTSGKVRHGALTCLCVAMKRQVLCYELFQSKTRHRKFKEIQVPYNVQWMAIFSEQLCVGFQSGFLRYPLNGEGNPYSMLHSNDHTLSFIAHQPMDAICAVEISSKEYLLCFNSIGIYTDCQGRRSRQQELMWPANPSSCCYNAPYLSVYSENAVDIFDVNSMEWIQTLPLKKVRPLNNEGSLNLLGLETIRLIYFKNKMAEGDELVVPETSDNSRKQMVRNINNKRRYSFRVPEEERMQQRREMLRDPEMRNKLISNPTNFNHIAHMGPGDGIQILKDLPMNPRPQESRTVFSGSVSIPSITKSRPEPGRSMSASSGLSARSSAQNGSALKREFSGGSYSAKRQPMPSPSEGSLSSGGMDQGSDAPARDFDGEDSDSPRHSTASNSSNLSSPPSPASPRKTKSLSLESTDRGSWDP
UniProt O15111: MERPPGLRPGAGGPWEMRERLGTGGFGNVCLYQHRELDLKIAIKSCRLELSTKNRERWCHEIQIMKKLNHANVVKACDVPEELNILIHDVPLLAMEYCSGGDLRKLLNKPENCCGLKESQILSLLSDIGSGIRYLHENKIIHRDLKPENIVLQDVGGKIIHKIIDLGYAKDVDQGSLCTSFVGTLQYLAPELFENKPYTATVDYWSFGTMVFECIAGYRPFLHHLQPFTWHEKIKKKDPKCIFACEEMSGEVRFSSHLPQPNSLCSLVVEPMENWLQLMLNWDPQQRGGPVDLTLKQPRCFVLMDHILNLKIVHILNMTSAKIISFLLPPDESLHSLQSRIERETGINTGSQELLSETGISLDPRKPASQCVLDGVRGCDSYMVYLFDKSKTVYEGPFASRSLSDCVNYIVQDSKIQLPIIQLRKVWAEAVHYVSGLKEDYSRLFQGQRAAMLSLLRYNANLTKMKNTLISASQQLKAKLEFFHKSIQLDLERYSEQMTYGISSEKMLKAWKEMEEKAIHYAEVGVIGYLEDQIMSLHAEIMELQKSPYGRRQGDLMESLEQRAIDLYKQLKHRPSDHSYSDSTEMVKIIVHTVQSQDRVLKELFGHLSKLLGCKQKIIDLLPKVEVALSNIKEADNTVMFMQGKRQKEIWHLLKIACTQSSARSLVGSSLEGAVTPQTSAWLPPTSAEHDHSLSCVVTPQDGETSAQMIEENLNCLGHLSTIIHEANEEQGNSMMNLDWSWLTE
UniProt P49761: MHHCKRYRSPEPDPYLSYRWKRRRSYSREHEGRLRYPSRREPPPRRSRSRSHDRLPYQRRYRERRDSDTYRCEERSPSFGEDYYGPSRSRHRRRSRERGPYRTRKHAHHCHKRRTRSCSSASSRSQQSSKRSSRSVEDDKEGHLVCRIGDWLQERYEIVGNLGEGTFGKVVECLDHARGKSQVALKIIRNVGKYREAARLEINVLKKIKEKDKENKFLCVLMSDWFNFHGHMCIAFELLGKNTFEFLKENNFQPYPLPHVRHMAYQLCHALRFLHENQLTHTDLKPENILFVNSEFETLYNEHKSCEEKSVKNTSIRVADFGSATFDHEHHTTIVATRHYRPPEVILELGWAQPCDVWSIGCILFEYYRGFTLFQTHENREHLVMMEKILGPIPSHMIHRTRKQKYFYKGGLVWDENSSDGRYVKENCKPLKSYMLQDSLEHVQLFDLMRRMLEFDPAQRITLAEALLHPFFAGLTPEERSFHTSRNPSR
UniProt Q8TD19: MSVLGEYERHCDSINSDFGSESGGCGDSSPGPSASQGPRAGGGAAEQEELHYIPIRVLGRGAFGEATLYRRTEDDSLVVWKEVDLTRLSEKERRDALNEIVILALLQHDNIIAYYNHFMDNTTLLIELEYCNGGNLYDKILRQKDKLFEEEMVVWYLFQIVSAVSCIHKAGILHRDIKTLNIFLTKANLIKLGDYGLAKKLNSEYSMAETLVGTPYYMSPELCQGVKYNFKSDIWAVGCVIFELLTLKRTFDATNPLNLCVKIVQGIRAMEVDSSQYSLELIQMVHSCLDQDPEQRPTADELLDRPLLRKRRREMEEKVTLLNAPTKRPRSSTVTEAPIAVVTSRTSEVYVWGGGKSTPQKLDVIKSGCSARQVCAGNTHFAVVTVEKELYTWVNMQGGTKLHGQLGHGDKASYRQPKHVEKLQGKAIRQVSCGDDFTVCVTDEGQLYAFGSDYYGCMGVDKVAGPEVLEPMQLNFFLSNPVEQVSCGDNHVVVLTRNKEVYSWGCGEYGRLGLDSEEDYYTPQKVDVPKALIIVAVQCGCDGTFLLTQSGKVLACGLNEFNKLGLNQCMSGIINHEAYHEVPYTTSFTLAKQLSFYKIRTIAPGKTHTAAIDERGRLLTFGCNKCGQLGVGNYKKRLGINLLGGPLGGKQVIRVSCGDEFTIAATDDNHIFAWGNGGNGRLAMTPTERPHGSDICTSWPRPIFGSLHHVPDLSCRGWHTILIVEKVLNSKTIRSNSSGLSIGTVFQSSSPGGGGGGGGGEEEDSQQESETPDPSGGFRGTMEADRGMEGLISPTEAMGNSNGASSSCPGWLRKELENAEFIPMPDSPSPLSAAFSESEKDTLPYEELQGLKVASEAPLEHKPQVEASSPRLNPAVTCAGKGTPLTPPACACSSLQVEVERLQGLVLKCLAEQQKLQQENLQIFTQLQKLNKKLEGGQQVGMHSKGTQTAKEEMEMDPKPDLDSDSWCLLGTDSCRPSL
UniProt P16591: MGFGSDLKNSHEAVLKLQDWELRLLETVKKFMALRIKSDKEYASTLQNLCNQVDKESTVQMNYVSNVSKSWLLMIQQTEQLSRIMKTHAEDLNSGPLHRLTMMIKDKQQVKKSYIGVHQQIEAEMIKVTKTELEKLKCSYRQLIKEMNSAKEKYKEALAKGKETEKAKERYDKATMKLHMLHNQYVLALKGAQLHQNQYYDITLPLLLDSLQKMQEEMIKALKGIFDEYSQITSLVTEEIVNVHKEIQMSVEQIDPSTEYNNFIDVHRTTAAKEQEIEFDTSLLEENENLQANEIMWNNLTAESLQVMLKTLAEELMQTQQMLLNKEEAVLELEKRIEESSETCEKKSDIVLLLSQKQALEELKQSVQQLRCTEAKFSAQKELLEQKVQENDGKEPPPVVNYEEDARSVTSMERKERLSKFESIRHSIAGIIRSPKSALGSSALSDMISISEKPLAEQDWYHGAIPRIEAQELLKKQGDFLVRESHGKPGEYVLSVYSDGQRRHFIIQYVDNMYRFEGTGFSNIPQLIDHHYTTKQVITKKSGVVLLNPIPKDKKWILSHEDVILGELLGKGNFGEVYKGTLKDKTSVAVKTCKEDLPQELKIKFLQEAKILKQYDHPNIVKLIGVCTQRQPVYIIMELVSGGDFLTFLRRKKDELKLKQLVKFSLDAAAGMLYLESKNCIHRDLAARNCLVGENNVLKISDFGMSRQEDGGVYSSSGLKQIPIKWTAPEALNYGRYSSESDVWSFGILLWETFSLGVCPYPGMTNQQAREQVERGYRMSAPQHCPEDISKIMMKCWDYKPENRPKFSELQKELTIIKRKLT

Tests used:
Test in all cases: radiometric filter-binding kinase assay, Kinase HotSpot
Details in all cases: compound 0.5 µM; ATP 10 µM
PASK (human) = PASK (human) (UniProt Q96RG2)
PIM2 (human) = PIM2 (human) (UniProt Q9P1W9)
VRK1 (human) = VRK1 (human) (UniProt Q99986)
CSK (human) = CSK (human) (UniProt P41240)
ZAP70 (human) = ZAP70 (human) (UniProt P43403)
STK16 (human) = STK16 (human) (UniProt O75716)
ACVR1B (human) = ACVR1B (human) (UniProt P36896)
INSRR (human) = INSRR (human) (UniProt P14616)
PAK6 (human) = PAK6 (human) (UniProt Q9NQU5)
MAP3K11 (human) = MAP3K11 (human) (UniProt Q16584)
FES (human) = FES (human) (UniProt P07332)
MERTK (human) = MERTK (human) (UniProt Q12866)
CAMK2B (human) = CAMK2B (human) (UniProt Q13554)
NEK11 (human) = NEK11 (human) (UniProt Q8NG66)
IKBKE (human) = IKBKE (human) (UniProt Q14164)
RPS6KA2 KD1 KD2 (human) = RPS6KA2 KD1 KD2 (human) (UniProt Q15349)
CDC42BPA (human) = CDC42BPA (human) (UniProt Q5VT25)
CAMK4 (human) = CAMK4 (human) (UniProt Q16566)
JAK2 JH1 JH2 (human) = JAK2 JH1 JH2 (human) (UniProt O60674)
PRKACA (human) = PRKACA (human) (UniProt P17612)
CHUK (human) = CHUK (human) (UniProt O15111)
NUAK2 (human) = NUAK2 (human) (UniProt Q9H093)
ROCK2 (human) = ROCK2 (human) (UniProt O75116)
ALK (human) = ALK (human) (UniProt Q9UM73)
ROCK1 (human) = ROCK1 (human) (UniProt Q13464)
BRSK1 (human) = BRSK1 (human) (UniProt Q8TDC3)
SLK (human) = SLK (human) (UniProt Q9H2G2)
CLK3 (human) = CLK3 (human) (UniProt P49761)
MAP3K3 (human) = MAP3K3 (human) (UniProt Q99759)
AKT2 (human) = AKT2 (human) (UniProt P31751)
MAP2K2 (human) = MAP2K2 (human) (UniProt P36507)
RIPK2 (human) = RIPK2 (human) (UniProt O43353)
YES1 (human) = YES1 (human) (UniProt P07947)
ERBB2 (human) = ERBB2 (human) (UniProt P04626)
NEK9 (human) = NEK9 (human) (UniProt Q8TD19)
BTK (human) = BTK (human) (UniProt Q06187)
TGFBR1 (human) = TGFBR1 (human) (UniProt P36897)
RET (human) = RET (human) (UniProt P07949)
RPS6KA6 KD1 KD2 (human) = RPS6KA6 KD1 KD2 (human) (UniProt Q9UK32)
MYLK2 (human) = MYLK2 (human) (UniProt Q9H1R3)
PDGFRB (human) = PDGFRB (human) (UniProt P09619)
FER (human) = FER (human) (UniProt P16591)

`COc1cc(OC)c(/C=C2\C(=O)Nc3ccccc32)c(OC)c1` was tested, and the residual activity (PASK (human)) was 92.9%, the residual activity (PIM2 (human)) was 101% and the residual activity (VRK1 (human)) was 83.2%. For the same molecule, the residual activity (CSK (human)) was 98.8%, the residual activity (ZAP70 (human)) was 100% and the residual activity (STK16 (human)) was 96.6%. It also gave a residual activity (ACVR1B (human)) of 101%, a residual activity (INSRR (human)) of 94.9% and a residual activity (PAK6 (human)) of 96.6%. It also gave a residual activity (MAP3K11 (human)) of 89.6%, a residual activity (FES (human)) of 97.1% and a residual activity (MERTK (human)) of 91.7%. It also gave a residual activity (CAMK2B (human)) of 103%, a residual activity (NEK11 (human)) of 100% and a residual activity (IKBKE (human)) of 101%. The residual activity (RPS6KA2 KD1 KD2 (human)) was 95.7%, the residual activity (CDC42BPA (human)) was 88.7% and the residual activity (CAMK4 (human)) was 97.3%. The residual activity (JAK2 JH1 JH2 (human)) was 103%, the residual activity (PRKACA (human)) was 101% and the residual activity (CHUK (human)) was 100%. For the same molecule, the residual activity (NUAK2 (human)) was 109%, the residual activity (ROCK2 (human)) was 96.5% and the residual activity (ALK (human)) was 95.3%. The residual activity (ROCK1 (human)) was 100%, the residual activity (BRSK1 (human)) was 95.2% and the residual activity (SLK (human)) was 94.3%. For the same molecule, the residual activity (CLK3 (human)) was 94.3%, the residual activity (MAP3K3 (human)) was 104% and the residual activity (AKT2 (human)) was 93.1%. It also gave a residual activity (MAP2K2 (human)) of 96.2%, a residual activity (RIPK2 (human)) of 89% and a residual activity (YES1 (human)) of 91.7%. The residual activity (ERBB2 (human)) was 94.6%, the residual activity (NEK9 (human)) was 108% and the residual activity (BTK (human)) was 105%. For the same molecule, the residual activity (TGFBR1 (human)) was 103%, the residual activity (RET (human)) was 107% and the residual activity (RPS6KA6 KD1 KD2 (human)) was 101%. For the same molecule, the residual activity (MYLK2 (human)) was 95.3%, the residual activity (PDGFRB (human)) was 85.8% and the residual activity (FER (human)) was 91.5%.

Work on `O=C1c2ccccc2-[n+]2ccc3c([nH]c4ccccc43)c21` yielded a residual activity (PASK (human)) of 93.3%, a residual activity (PIM2 (human)) of 108% and a residual activity (VRK1 (human)) of 84.8%. For the same molecule, the residual activity (CSK (human)) was 96.4%, the residual activity (ZAP70 (human)) was 91.2% and the residual activity (STK16 (human)) was 103%. It also gave a residual activity (ACVR1B (human)) of 99.9%, a residual activity (INSRR (human)) of 94.1% and a residual activity (PAK6 (human)) of 105%. It also gave a residual activity (MAP3K11 (human)) of 82.1%, a residual activity (FES (human)) of 96.5% and a residual activity (MERTK (human)) of 87.8%. It also gave a residual activity (CAMK2B (human)) of 104%, a residual activity (NEK11 (human)) of 91.6% and a residual activity (IKBKE (human)) of 104%. For the same molecule, the residual activity (RPS6KA2 KD1 KD2 (human)) was 94.9%, the residual activity (CDC42BPA (human)) was 89.7% and the residual activity (CAMK4 (human)) was 88.3%. The residual activity (JAK2 JH1 JH2 (human)) was 91.6%, the residual activity (PRKACA (human)) was 97.4% and the residual activity (CHUK (human)) was 82.6%. The residual activity (NUAK2 (human)) was 109%, the residual activity (ROCK2 (human)) was 96.9% and the residual activity (ALK (human)) was 94.6%. The residual activity (ROCK1 (human)) was 97.4%, the residual activity (BRSK1 (human)) was 95.3% and the residual activity (SLK (human)) was 83.4%. It also gave a residual activity (CLK3 (human)) of 88.2%, a residual activity (MAP3K3 (human)) of 121% and a residual activity (AKT2 (human)) of 87.5%. The residual activity (MAP2K2 (human)) was 91.3%, the residual activity (RIPK2 (human)) was 99.4% and the residual activity (YES1 (human)) was 93.1%. It also gave a residual activity (ERBB2 (human)) of 94.2%, a residual activity (NEK9 (human)) of 109% and a residual activity (BTK (human)) of 105%. For the same molecule, the residual activity (TGFBR1 (human)) was 101%, the residual activity (RET (human)) was 102% and the residual activity (RPS6KA6 KD1 KD2 (human)) was 90.3%. For the same molecule, the residual activity (MYLK2 (human)) was 90.4%, the residual activity (PDGFRB (human)) was 88.3% and the residual activity (FER (human)) was 93.9%.
